# Measured affinities in a library of Ab-95 light chain variants

Values reported by Engelhart et al. 2022, doi:10.1038/s41597-022-01779-4 (FLAb copy).

Target: peptide PDVDLGDISGINAS, taken from heptad repeat 2 (HR2) of SARS-CoV-2 spike.

The variants keep the heavy chain, the linker and the frameworks of Ab-95 (scFv order VH, a (GGGGS)3 linker, VL).
VH: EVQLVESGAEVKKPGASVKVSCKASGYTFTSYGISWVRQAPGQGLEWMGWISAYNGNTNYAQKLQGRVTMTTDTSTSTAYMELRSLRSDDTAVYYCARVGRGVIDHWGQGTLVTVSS
VL: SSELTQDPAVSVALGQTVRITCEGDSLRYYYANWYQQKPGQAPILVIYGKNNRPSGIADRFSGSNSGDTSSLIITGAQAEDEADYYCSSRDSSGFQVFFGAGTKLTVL

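Library AAYL52 holds single substitutions and randomly drawn double and triple substitutions in the CDRs. The scFvs were displayed on barcoded MATa yeast, the peptide on MATalpha yeast. Pairs that bind mate more often; barcode pairs of the diploids are counted by sequencing. Read counts were normalised to the haploid input and turned into Kd by a linear fit to BCL2-family pairs of known affinity, for each replicate. The assay was run in three technical replicates.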

Each variant is given by its three light chain CDRs, as the data file delimits them; those of the parent are EGDSLRYYYAN, GKNNRPS, SSRDSSGFQVF. Values are log10 of the apparent Kd in nM; lower means stronger binding. Replicates are averaged; those with no signal do not enter the mean. "n.d." marks a missing value. The strain was present, yet no cells mated with the target were sequenced in that replicate, which points to weak or no binding. Nonspecific signal, from three strains lacking the peptide, appeared in 28% of pairings of library AAYL52, centred on 3.91 (5% of these signals below 2.90); values are not corrected for it. Also given: how often the same scFv was detected with the empty control strains, with their mean in brackets. Parent in this assay: reference entry 2.31, copy in this library 2.25.

| CDR-L1 | CDR-L2 | CDR-L3 | log10 Kd (nM) by replicate | log10 Kd (nM), mean | empty controls |
|---|---|---|---|---|---|
| WGDSLRYYYAN | GANNPPS | SSRDSSGFQVF | 4.13 / 4.01 / 4.52 | 4.22 | 2 of 9 (3.76) |
| EGDSLRYYYAN | GKNNRPS | KSRDSKGFQVV | 3.56 / n.d. / n.d. | 3.56 | 3 of 9 (3.81) |
| EGDSLRYYYDN | GKNNRPS | SSRDSSGFQVF | 3.93 / n.d. / n.d. | 3.93 | 4 of 9 (3.55) |
| VGDSLRYYYAN | GDNNRPS | SSRDESGFQVF | 1.68 / 1.95 / 1.26 | 1.63 | 0 of 9 |
| EGDSLTYYYAN | GKNNRPS | SMRDSSGFQGF | 4.30 / 5.21 / 3.60 | 4.37 | 3 of 9 (4.63) |
| EWDSLRYYFAN | GKNNRPS | SSNDSSGFQVF | n.d. / n.d. / n.d. | n.d. | 1 of 9 (3.84) |
| EIDVLRYYYAN | GKNNRDS | SSRDSSGFQVF | 3.53 / n.d. / n.d. | 3.53 | 1 of 9 (3.06) |
| ENDSLRYNYAN | GKNNRPS | SSRDSSGEQVF | 2.56 / 4.30 / 3.32 | 3.39 | 2 of 9 (3.56) |
| EGDCLRYYYAN | GKNNRPD | SSRDSSGFQQF | n.d. / n.d. / 3.95 | 3.95 | 6 of 9 (3.43) |
| EGDSLRYYYLN | FKNNRPS | SSRDASGFQVF | 3.40 / n.d. / n.d. | 3.40 | 2 of 9 (2.84) |
| EGDSLRYYYAN | CKNNRPS | SSRFSSQFQVF | n.d. / n.d. / 3.44 | 3.44 | 4 of 9 (4.14) |
| EGDSLYYYYAN | GKNNRPS | SWRDSSGFQLF | 3.08 / 3.25 / 3.35 | 3.22 | 4 of 9 (4.46) |
| EGDSLRYYYMN | GKTNRPS | SSQDSSGFQVF | n.d. / n.d. / n.d. | n.d. | 1 of 9 (5.21) |
| EGQSLRYSYAN | GKSNRPS | SSRDSSGFQVF | 1.24 / 1.24 / 0.84 | 1.11 | 7 of 9 (4.30) |
| EGDSNRYYYAN | GKNNRPS | SSRDDSGFQKF | 4.61 / n.d. / 3.51 | 4.06 | 3 of 9 (3.89) |
| EGDSHRYYYAN | GKNNRPS | SSRDSSRAQVF | 3.03 / 3.41 / 3.04 | 3.16 | 3 of 9 (3.82) |
| EGDSLRWVYAN | GKNNRPS | SSRDSSGYQVF | 1.97 / 1.78 / 1.43 | 1.73 | 3 of 9 (4.07) |
| EGDSLRYYYKN | GKNNRPS | SSRDSSGFQVF | n.d. / 4.25 / 2.75 | 3.50 | 2 of 9 (4.34) |
| EGDSLYYYYAN | GKNNRPS | DSRDSSGFQVF | n.d. / 3.66 / 4.40 | 4.03 | 3 of 9 (3.80) |
| EPDSLRYYYAN | GRNNRPS | SERDSSGFQVF | n.d. / n.d. / n.d. | n.d. | 1 of 9 (3.87) |
| ELDSLRYFEAN | GKNNRPS | SSRDSSGFQVF | 3.26 / 3.10 / 2.65 | 3.00 | 4 of 9 (4.19) |
| EGTSLRYYYAN | GKNNRPS | SSRDSSGFQVF | 2.50 / 2.11 / 1.96 | 2.19 | 5 of 9 (3.64) |
| EGDSLRYYYAN | GKNNRPS | SSRDSSSFQKF | 3.02 / 2.71 / 3.49 | 3.07 | 1 of 9 (4.73) |
| EGDNLRYYYAN | GKNNRPS | NSRDSSHFQVF | 3.72 / 3.95 / 3.00 | 3.55 | 2 of 9 (5.16) |
| EGDNLRYYYAN | GKNNDPS | SSRDSSGFGVF | 5.36 / n.d. / 2.80 | 4.08 | 4 of 9 (3.48) |
| EGDSLRYYYEN | GKNNRPG | SSRDLSGFQVF | n.d. / n.d. / n.d. | n.d. | 2 of 9 (4.05) |
| EGDSLRYYYAN | GKNKRPS | SSRDSAGFQVF | 2.73 / n.d. / 2.86 | 2.80 | 2 of 9 (3.80) |
| EGDSLRYYVAN | GKCNRPS | SSRDSSGFQSF | 4.12 / n.d. / 4.23 | 4.18 | 4 of 9 (4.07) |
| EGDSLRYYYAN | GKNNRPS | SCRDSSGFQVD | 2.95 / 2.46 / 2.75 | 2.72 | 2 of 9 (4.29) |
| EGDSLRYYYAN | GKNNRPS | KSRDSSGFQVF | 2.13 / 1.95 / 2.34 | 2.14 | 3 of 9 (4.28) |
| EGDSERYYYAN | GTNNRPS | SSRDSSGFQIF | n.d. / n.d. / n.d. | n.d. | 0 of 9 |
| EGDSLRYYYAN | GKNNRPE | SSKDSSGFQDF | 2.90 / 4.36 / 4.10 | 3.79 | 3 of 9 (3.98) |
| EGDTLRYYYAN | RKNNRPS | SFRDSSGFQVF | 2.49 / 3.69 / n.d. | 3.09 | 0 of 9 |
| EGDSWRYDYAN | AKNNRPS | SSRDSSGFQVF | 3.48 / 3.74 / 3.97 | 3.73 | 4 of 9 (3.92) |
| EGDSLRYYYAN | GKNNKPS | SSADSSGEQVF | n.d. / 5.56 / n.d. | 5.56 | 1 of 9 (2.42) |
| EGDSLRYYYAN | GKNNSPS | SSRDSSGFQVF | 2.65 / 2.75 / 2.57 | 2.66 | 2 of 9 (3.50) |

The 5 strongest on average among those seen in every replicate, once more:

| CDR-L1 | CDR-L2 | CDR-L3 | log10 Kd (nM) by replicate | log10 Kd (nM), mean | empty controls |
|---|---|---|---|---|---|
| EGQSLRYSYAN | GKSNRPS | SSRDSSGFQVF | 1.24 / 1.24 / 0.84 | 1.11 | 7 of 9 (4.30) |
| VGDSLRYYYAN | GDNNRPS | SSRDESGFQVF | 1.68 / 1.95 / 1.26 | 1.63 | 0 of 9 |
| EGDSLRWVYAN | GKNNRPS | SSRDSSGYQVF | 1.97 / 1.78 / 1.43 | 1.73 | 3 of 9 (4.07) |
| EGDSLRYYYAN | GKNNRPS | KSRDSSGFQVF | 2.13 / 1.95 / 2.34 | 2.14 | 3 of 9 (4.28) |
| EGTSLRYYYAN | GKNNRPS | SSRDSSGFQVF | 2.50 / 2.11 / 1.96 | 2.19 | 5 of 9 (3.64) |